The text below walks through data of ChEMBL document CHEMBL2380222, “Arylsulfonamide pyrimidines as VLA-4 antagonists” (Bioorg Med Chem Lett, 2013).

As usually defined, the IC50 is the concentration that gives 50% inhibition. A high value points to a need for much substance.

The assay concerns the target T1, Integrin alpha-4/beta-7 (Homo sapiens, UniProt P13612+P26010).
T1 sequence (P13612 whole entry): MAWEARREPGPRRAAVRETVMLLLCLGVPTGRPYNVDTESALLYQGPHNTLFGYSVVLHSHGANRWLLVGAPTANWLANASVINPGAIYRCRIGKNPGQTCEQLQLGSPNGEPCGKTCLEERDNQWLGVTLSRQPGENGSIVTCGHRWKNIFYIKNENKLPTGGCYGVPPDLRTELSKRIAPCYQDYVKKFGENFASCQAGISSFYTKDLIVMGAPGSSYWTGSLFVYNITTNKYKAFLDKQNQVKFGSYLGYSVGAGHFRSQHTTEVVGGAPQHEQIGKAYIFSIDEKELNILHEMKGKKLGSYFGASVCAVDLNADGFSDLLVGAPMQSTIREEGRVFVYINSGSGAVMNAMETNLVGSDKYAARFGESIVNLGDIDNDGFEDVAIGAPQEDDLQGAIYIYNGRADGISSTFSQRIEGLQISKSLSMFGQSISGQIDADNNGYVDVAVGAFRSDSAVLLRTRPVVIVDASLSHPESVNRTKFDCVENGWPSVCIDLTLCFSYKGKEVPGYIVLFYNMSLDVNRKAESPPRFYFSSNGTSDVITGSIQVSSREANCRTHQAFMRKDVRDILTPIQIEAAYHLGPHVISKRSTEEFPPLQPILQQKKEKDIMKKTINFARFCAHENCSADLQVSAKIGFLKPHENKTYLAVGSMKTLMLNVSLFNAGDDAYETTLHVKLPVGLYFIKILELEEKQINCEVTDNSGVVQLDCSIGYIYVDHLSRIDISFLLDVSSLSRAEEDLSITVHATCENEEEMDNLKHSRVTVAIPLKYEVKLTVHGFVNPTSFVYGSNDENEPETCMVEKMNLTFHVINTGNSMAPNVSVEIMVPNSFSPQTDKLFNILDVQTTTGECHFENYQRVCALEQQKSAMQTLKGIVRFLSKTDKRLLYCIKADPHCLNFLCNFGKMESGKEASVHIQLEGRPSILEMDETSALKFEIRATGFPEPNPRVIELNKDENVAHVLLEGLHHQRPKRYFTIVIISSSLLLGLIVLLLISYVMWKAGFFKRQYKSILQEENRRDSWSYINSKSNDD
T1 sequence (P26010 whole entry): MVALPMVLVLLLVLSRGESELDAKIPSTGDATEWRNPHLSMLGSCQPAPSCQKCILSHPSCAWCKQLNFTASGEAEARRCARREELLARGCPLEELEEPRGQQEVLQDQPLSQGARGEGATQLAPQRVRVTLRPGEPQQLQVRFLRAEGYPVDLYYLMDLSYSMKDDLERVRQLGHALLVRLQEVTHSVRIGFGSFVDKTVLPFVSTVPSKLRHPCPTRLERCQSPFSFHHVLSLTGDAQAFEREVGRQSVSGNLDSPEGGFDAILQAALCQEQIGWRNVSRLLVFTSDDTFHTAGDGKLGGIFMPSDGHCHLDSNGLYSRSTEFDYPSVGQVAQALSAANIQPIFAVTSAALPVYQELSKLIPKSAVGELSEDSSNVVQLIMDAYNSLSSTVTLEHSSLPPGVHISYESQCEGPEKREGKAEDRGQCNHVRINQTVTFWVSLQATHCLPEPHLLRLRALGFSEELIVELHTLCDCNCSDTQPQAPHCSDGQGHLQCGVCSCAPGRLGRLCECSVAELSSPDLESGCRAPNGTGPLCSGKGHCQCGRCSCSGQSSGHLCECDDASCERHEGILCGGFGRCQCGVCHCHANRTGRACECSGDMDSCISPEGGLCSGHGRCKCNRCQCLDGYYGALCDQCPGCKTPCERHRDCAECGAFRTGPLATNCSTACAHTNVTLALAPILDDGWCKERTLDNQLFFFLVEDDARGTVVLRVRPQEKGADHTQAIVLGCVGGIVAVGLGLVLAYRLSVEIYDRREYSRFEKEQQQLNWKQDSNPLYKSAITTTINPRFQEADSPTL
Kind of assay: Inhibition of integrin alpha4beta7 (unknown origin) binding to MadCAM in human 8866 cells after 30 mins by fibronectin mediated cell adhesion assay. It is filed as cell-based.

Consider `C#CCN(c1cnc(N(CC)CC)nc1N[C@@H](Cc1ccc(OC(=O)N2CCCC2)cc1)C(=O)O)S(=O)(=O)c1ccc(F)cc1`, for which the IC50 is 7.24 µM.
